The values that follow are results of earlier work, collected in PubChem BioAssay AID977611.

Each structure is given as a SMILES string. Some results are limits rather than exact numbers.

As usually defined, the Kd is the equilibrium constant for the complex coming apart.

Common to all, as to test: PubChem AID 977611
One data set has as its target DNA gyrase b. The note with it: PDB protein-ligand complexes, literature Kd; protein: DNA gyrase b; PDB entry 1KZN.
The next data set deals with 1H62 A. The note with it: PDB protein-ligand complexes, literature Kd; PDB entry 1H62.
Data set [1] deals with anaerobic ribonucleotide-triphosphate reductase. The note with it: PDB protein-ligand complexes, literature Kd; protein: anaerobic ribonucleotide-triphosphate reductase; PDB entry 1H7A.
Data set [2] addresses fk506 binding protein (fkbp). As to conditions: PDB protein-ligand complexes, literature Kd; protein: fk506 binding protein (fkbp); PDB entry 1F40.
Another data set has as its target serum albumin. The note with it: PDB protein-ligand complexes, literature Kd; protein: serum albumin; PDB entry 1GNJ.
Data set [3] addresses trp rna-binding attenuation protein. As to conditions: PDB protein-ligand complexes, literature Kd; protein: trp rna-binding attenuation protein; PDB entry 1ADL.
The target in a further data set is 1H61 A. As to conditions: PDB protein-ligand complexes, literature Kd; PDB entry 1H61.
The target of data set [4] is pyridoxal phosphate biosynthetic protein pdxj. As to conditions: PDB protein-ligand complexes, literature Kd; protein: pyridoxal phosphate biosynthetic protein pdxj; PDB entry 1M5W.
For the next data set, the target named is glycogen phosphorylase. As to conditions: PDB protein-ligand complexes, literature Kd; protein: glycogen phosphorylase; PDB entry 1L5S.
The next data set concerns the target lectin. As to conditions: PDB protein-ligand complexes, literature Kd; protein: lectin; PDB entry 1AX2.
In data set [5] the target is fatty acid-binding protein. The note with it: PDB protein-ligand complexes, literature Kd; protein: fatty acid-binding protein; PDB entry 1FDQ.
In data set [6] the target is neutrophil gelatinase-associated lipocalin. As to conditions: PDB protein-ligand complexes, literature Kd; protein: neutrophil gelatinase-associated lipocalin; PDB entry 1L6M.
Data set [7] concerns the target inhibitor of apoptosis protein 3. As to conditions: PDB protein-ligand complexes, literature Kd; protein: inhibitor of apoptosis protein 3; PDB entry 1G3F.
The target of the next data set is farnesyltransferase. The note with it: PDB protein-ligand complexes, literature Kd; protein: farnesyltransferase; PDB entry 1FPP.
The target in the next data set is auxin-binding protein 1. The note with it: PDB protein-ligand complexes, literature Kd; protein: auxin-binding protein 1; PDB entry 1LRH.
Data set [8] addresses Fermitin family homolog 2. The note with it: PDB protein-ligand complexes, literature Kd; protein: Fermitin family homolog 2; PDB entry 2LKO.
The next data set addresses bruton's tyrosine kinase. As to conditions: PDB protein-ligand complexes, literature Kd; protein: bruton's tyrosine kinase; PDB entry 1BWN.
Data set [9] addresses dual adaptor of phosphotyrosine and 3 phosphoinositides. The note with it: PDB protein-ligand complexes, literature Kd; protein: dual adaptor of phosphotyrosine and 3 phosphoinositides; PDB entry 1FAO.
The next data set has as its target tyrosine kinase btk. The note with it: PDB protein-ligand complexes, literature Kd; protein: tyrosine kinase btk; PDB entry 1B55.
The target in data set [10] is isopentenyl diphosphate delta-isomerase. As to conditions: PDB protein-ligand complexes, literature Kd; protein: isopentenyl diphosphate delta-isomerase; PDB entry 1NFS.
The target of data set [11] is troponin c, slow skeletal and cardiac muscles. The note with it: PDB protein-ligand complexes, literature Kd; protein: troponin c, slow skeletal and cardiac muscles; PDB entry 1LXF.
The target of data set [12] is cation-dependent mannose-6-phosphate receptor. The note with it: PDB protein-ligand complexes, literature Kd; protein: cation-dependent mannose-6-phosphate receptor; PDB entry 1M6P.
Data set [13] has as its target cation-independent mannose 6-phosphate receptor. As to conditions: PDB protein-ligand complexes, literature Kd, protein: cation-independent mannose 6-phosphate receptor.
A further data set deals with antibody fab fragment. The note with it: PDB protein-ligand complexes, literature Kd; protein: antibody fab fragment; PDB entry 1IND.
A further data set has as its target alpha t cell receptor. As to conditions: PDB protein-ligand complexes, literature Kd; protein: alpha t cell receptor; PDB entry 1G6R.
Data set [14] has as its target TetR-like transcriptional repressor LfrR from Mycobacterium smegmatis. As to conditions: PDB protein-ligand complexes, literature Kd; protein: TetR-like transcriptional repressor LfrR from Mycobacterium smegmatis; PDB entry 2V57.
A further data set deals with thrombin alpha. As to conditions: PDB protein-ligand complexes, literature Kd; protein: thrombin alpha; PDB entry 1BCU.
Data set [15] deals with transcriptional regulator qacr. As to conditions: PDB protein-ligand complexes, literature Kd, protein: transcriptional regulator qacr.
In data set [16] the target is maltose-binding periplasmic protein. As to conditions: PDB protein-ligand complexes, literature Kd; protein: maltose-binding periplasmic protein; PDB entry 1EZ9.
The next data set has as its target glycogen phosphorylase b. The note with it: PDB protein-ligand complexes, literature Kd; protein: glycogen phosphorylase b; PDB entry 1GPY.
Data set [17] deals with uracil phosphoribosyltransferase. As to conditions: PDB protein-ligand complexes, literature Kd; protein: uracil phosphoribosyltransferase; PDB entry 1JLR.
Data set [18] has as its target nadph-flavin oxidoreductase. As to conditions: PDB protein-ligand complexes, literature Kd; protein: nadph-flavin oxidoreductase; PDB entry 1BKJ.

For `CO[C@@H]1[C@@H](OC(=O)c2ccc(C)[nH]2)[C@@H](O)[C@H](Oc2ccc3c(O)c(NC(=O)c4ccc(O)c(CC=C(C)C)c4)c(=O)oc3c2Cl)OC1(C)C`, the Kd at DNA gyrase b is 1.2 nM.
As to `C[C@]12C=CC(=O)C=C1CC[C@@H]1[C@@H]2CC[C@]2(C)C(=O)CC[C@@H]12`, the Kd on 1H62 A was 17000 nM.
Regarding `Nc1ncnc2c1ncn2[C@H]1C[C@H](O)[C@@H](COP(=O)(O)OP(=O)(O)OP(=O)(O)O)O1`, the dissociation constant Kd in data set [1] is 19000 nM.
`CCC(C)(C)C(=O)C(=O)N1CCC[C@H]1C(=O)OCCCc1cccnc1`: in data set [2], the Kd is 1000 nM.
On to `CCCCC/C=C\C/C=C\C/C=C\C/C=C\CCCC(=O)O`, for which the dissociation constant Kd on serum albumin is 91 nM; in [3] it was 4400 nM.
With `C[C@]12C=CC(=O)C=C1CC[C@@H]1[C@@H]2C(=O)C[C@@]2(C)[C@H]1CC[C@]2(O)[C@@H](O)C=O`, the dissociation constant Kd on 1H61 A was 13000 nM.
As to `CC(=O)[C@@H](O)[C@H](O)COP(=O)(O)O`, in [4], the Kd is 54000 nM.
On to `O=c1[nH]c(=O)c2[nH]c(=O)[nH]c2[nH]1`, for which, at glycogen phosphorylase, the Kd was 550000 nM.
For the compound `CC(=O)N[C@@H]1[C@@H](O)[C@H](O[C@@H]2O[C@H](CO)[C@H](O)[C@H](O)[C@H]2O)[C@@H](CO)O[C@@H]1O`, at lectin, the Kd was 103000 nM.
On to `CC/C=C\C/C=C\C/C=C\C/C=C\C/C=C\C/C=C\CCC(=O)O`, for which the Kd in [5] was 53.4 nM.
As to `O=C(O)c1cccc(O)c1O`, the Kd in data set [6] was 7.9 nM.
Regarding `CC[C@H](C)[C@H](NC(=O)[C@@H]1CCCN1C(=O)[C@@H](NC(=O)[C@H](C)N)C(C)C)C(=O)N[C@@H](C)C(=O)N[C@@H](CCC(N)=O)C(=O)N[C@@H](CCCCN)C(=O)N[C@@H](CO)C(=O)N[C@@H](CCC(=O)O)C(=O)O`, the Kd in [7] was 430 nM.
For `CC(C)=CCC/C(C)=C/CC/C(C)=C\COP(=O)(O)OP(=O)(O)O`, the Kd at farnesyltransferase is 10 nM.
Turning to `O=C(O)Cc1cccc2ccccc12`, the Kd on auxin-binding protein 1 is 150 nM.
With `O=P(O)(O)OC1[C@H](O)[C@H](OP(=O)(O)O)C(OP(=O)(O)O)[C@H](OP(=O)(O)O)[C@H]1O` (some centres undefined), the Kd is 2120 nM in data set [8], 87 nM on bruton's tyrosine kinase, 43 nM in data set [9] and 40 nM on tyrosine kinase btk.
As to `CN(C)CCOP(=O)(O)OP(=O)(O)O`, in data set [10], the Kd was < 0.12 nM.
With `CC(C)COC[C@H](CN(Cc1ccccc1)c1ccccc1)N1CCCC1`, the equilibrium dissociation constant (Kd) in [11] is 80000 nM.
As to `O=P(O)(O)OC[C@H]1O[C@H](O)[C@@H](O)[C@@H](O)[C@@H]1O`, the Kd was 8000 nM in data set [12], 1 nM in [13] (PDB entry 1SYO) and 1 nM in data set [13] (PDB entry 1SZ0).
For the compound `O=C(O)CN(CC(=O)O)C[C@H](Cc1ccc(NC(=S)NCCO)cc1)N(CC(=O)O)CC(=O)O`, the dissociation constant Kd on antibody fab fragment is 0.09 nM.
As for `CC[C@H](C)[C@H](NC(=O)[C@@H](N)CO)C(=O)N[C@@H](Cc1ccc(O)cc1)C(=O)N[C@@H](CCCN=C(N)N)C(=O)N[C@@H](Cc1ccc(O)cc1)C(=O)N[C@@H](Cc1ccc(O)cc1)C(=O)NCC(=O)N[C@@H](CC(C)C)C(=O)O`, at alpha t cell receptor, the Kd is 54000 nM.
Consider `Nc1ccc2cc3ccc(N)cc3nc2c1`, for which the equilibrium dissociation constant (Kd) in data set [14] was 79 nM; at thrombin alpha it was 530000 nM; in data set [15] (PDB entry 1QVT), 42000 nM; in data set [15] (PDB entry 1QVU) it was 35000 nM.
Consider `OC[C@@H](O)[C@@H](O[C@H]1O[C@H](CO)[C@@H](O[C@H]2O[C@H](CO)[C@@H](O[C@H]3O[C@H](CO)[C@@H](O)[C@H](O)[C@H]3O)[C@H](O)[C@H]2O)[C@H](O)[C@H]1O)[C@H](O)[C@@H](O)CO`, for which, in data set [16], the Kd was 8000 nM.
Turning to `O=P(O)(O)OC[C@H]1O[C@H](O)[C@H](O)[C@@H](O)[C@@H]1O`, the equilibrium dissociation constant (Kd) at glycogen phosphorylase b was 20000 nM.
On to `Nc1nc2c(ncn2[C@@H]2O[C@H](COP(=O)(O)OP(=O)(O)OP(=O)(O)O)[C@@H](O)C2O)c(=O)[nH]1` (some centres undefined), for which the Kd in data set [17] was 465000 nM.
Regarding `Cc1cc2nc3c(=O)[nH]c(=O)nc-3n(CC(O)[C@H](O)[C@H](O)COP(=O)(O)O)c2cc1C` (some centres undefined), the Kd in [18] was 170 nM.
